Laboratory results published in patent publication US20110319339A1, “NEUROTENSIN-DERIVED BRANCHED PEPTIDES AND USES THEREOF” (priority 2008, published 2011).

Columns and labels:
[1] = Classification of functionalized branched peptides as fast or slow/non releasing; conditions: ability to release the functional unit from the carrier peptide
PANC-1 cells = assay: Peptide internalization and drug release in PANC-1 cells, MALDI-Tof MS of supernatant and lysed cells; conditions: 100 μM, 37° C.; for state of conjugate in the supernatant or in lysate: ether conjugated drugs
Source text: Cells were centrifuged, washed and then lysed in water after freezing and thawing.

[2] = phosphate buffer pH=7.4, 37° C.

| Substance | releasing class of the adduct [1] | course of the conjugate in cell medium and cell lysate (PANC-1 cells) | 6-MP released ([2]; after 30 min, 5 equivalents of GSH) | 6-MP released ([2]; after 135 min, 1 equivalent of GSH) | time of appearance in cell lysate (PANC-1 cells) | time of maximum concentration in cell lysate (PANC-1 cells) | state of conjugate in the supernatant or in lysate (PANC-1 cells) | time of drug release by hydrolysis of ester bond (PANC-1 cells) |
| --- | --- | --- | --- | --- | --- | --- | --- | --- |
| NT(8-13)4-PEG-K(PEG-Fluorescein) [NT4(8-13)-Fluo] | slow releasing |  |  |  |  |  |  |  |
| NT(8-13)-betaAla-K(PEG-5-fluorodeoxyuridine) [NT4(8-13)-5-FdU] | fast releasing | decreased gradually in cell lysate and cell medium |  |  |  |  |  |  |
| NT(8-13)-betaAla-K(PEG-6-mercaptopurine) [NT4(8-13)-6-MP] | fast releasing |  | 100% | 86% |  |  |  |  |
| NT(8-13)-betaAla-K(PEG-Combretastatin ether) [NT4(8-13)-O—CBTST] | slow releasing | decreased gradually in cell medium while increasing in cell lysate |  |  | 1 h | 48 h | intact |  |
| NT(8-13)-betaAla-K(PEG-Combretastatin) [NT4(8-13)-CBTST] | fast releasing |  |  |  |  |  |  | 2 h |
| NT(8-13)-betaAla-K(PEG-Monastrol ether) [NT4(8-13)-O-Mon] | slow releasing | decreased gradually in cell medium while increasing in cell lysate |  |  | 1 h | 48 h | intact |  |
| NT(8-13)-betaAla-K(PEG-Monastrol) [NT4(8-13)-Mon] | fast releasing |  |  |  |  |  |  | 2 h |

Read-outs that look alike come from different tables or passages of the source.
